Assay results as given in patent US20180112201A1.
Where “and” joins values, the source holds several entries; their conditions need not be identical. Equal values may be shown once. Read-outs that look alike come from different tables or passages of the source.

How the values were obtained:
Test in all cases: cell-based or functional assay
[1] = target: L171(1): Tris-modified DNase I (human) (UniProt P24855)
[2] = target: AIR DNase: plant recombinant human DNase I modified by amidation with ethylene diamine and 60 equivalents of CMC (human) (UniProt P24855)
[3] = target: L171(2): ammonia-modified DNase I (human) (UniProt P24855)
[4] = target: Pulmozyme DNase I (dornase alfa) (human) (UniProt P24855)
[5] = target: L172: ethanolamine-modified DNase I (human) (UniProt P24855)
[6] = target: Y24(6): DNase I modified by amidation with hexamethylene diamine using 100 equivalents of EDC (human) (UniProt P24855)
[7] = target: Y24(3): DNase I modified by amidation with ethylene diamine using 100 equivalents of EDC (human) (UniProt P24855)
[8] = target: Y24(2): DNase I modified by amidation with ethylene diamine using 50 equivalents of EDC (human) (UniProt P24855)
[9] = target: plant recombinant human DNase I (human) (UniProt P24855)
[10] = target: Pulmozyme DNase I (dornase alfa) (human) (UniProt P24855); remark: listed apart in the source
[11] = target: plant recombinant human DNase I (human) (UniProt P24855); remark: listed apart in the source
[12] = target: plant recombinant human DNase I (human) (UniProt P24855); remark: listed apart in the source

inhibition of DNase activity at the highest actin concentration tested (50 µg/ml) [1]: < 20%
inhibition of DNase activity at actin concentrations of about 2 µg/ml or less [2]: < 10%
inhibition of DNase activity at the highest actin concentration tested (50 µg/ml) [2]: < 13%
inhibition of DNase activity at the highest actin concentration tested (50 µg/ml) [3]: < 20%
IC50 for actin inhibition of DNase I activity (methyl green DNA hydrolysis assay) [4]: 0.19 µg/mL
IC50 for inhibition of DNase I activity by actin (methyl green DNA hydrolysis assay, 45 ng/ml DNase I) [4]: 0.23 µg/mL
inhibition of DNase activity at the highest actin concentration tested (50 µg/ml) [5]: < 20%
inhibition of DNase activity at the highest actin concentration tested (100 µg/ml) [6]: < 80%
inhibition of DNase activity at the highest actin concentration tested (100 µg/ml) [7]: < 80%
inhibition of DNase activity at the highest actin concentration tested (100 µg/ml) [8]: < 80%
IC50 for actin inhibition of DNase I activity (methyl green DNA hydrolysis assay) [9]: 0.46 µg/mL
IC50 for inhibition of DNase I activity by actin (methyl green DNA hydrolysis assay) [9]: 0.75 µg/mL and 0.777 µg/mL
IC50 for inhibition of DNase I activity by actin (methyl green DNA hydrolysis assay) [10]: 0.2 µg/mL
IC50 for inhibition of DNase I activity by actin (methyl green DNA hydrolysis assay) [11]: 0.47 µg/mL
IC50 for actin inhibition of DNase I activity (methyl green DNA hydrolysis assay) [12]: 0.89 µg/mL
Substance: human non-muscle actin (from UniProt P60709 2-375)
